# According to paper PMC7901023:
# By UniProt entry, the sequences of proteins in these tests, tags left out. Where a name states a change or a piece, a line headed by the entry shows the natural chain unless it says otherwise.
# UniProt P35583: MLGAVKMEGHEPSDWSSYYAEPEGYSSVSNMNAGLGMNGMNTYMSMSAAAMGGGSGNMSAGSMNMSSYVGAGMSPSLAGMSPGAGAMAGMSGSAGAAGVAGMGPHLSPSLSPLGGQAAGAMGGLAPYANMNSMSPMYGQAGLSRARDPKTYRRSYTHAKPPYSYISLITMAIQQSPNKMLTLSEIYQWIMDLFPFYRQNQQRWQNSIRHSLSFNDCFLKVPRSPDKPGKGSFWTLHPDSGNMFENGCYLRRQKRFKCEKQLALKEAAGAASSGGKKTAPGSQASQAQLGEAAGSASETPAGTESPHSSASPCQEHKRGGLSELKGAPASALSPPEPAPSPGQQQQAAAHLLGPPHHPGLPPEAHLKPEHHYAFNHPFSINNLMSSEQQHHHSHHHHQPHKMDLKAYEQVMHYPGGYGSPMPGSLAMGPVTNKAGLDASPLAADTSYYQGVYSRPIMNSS
# Target: FOXA2-ΔHx (UniProt P35583)
# Assay: pull-down
substance,measurement,value
recombinant histone octamers (complex),pull-down relative to wild-type FOXA2 (fraction of wild type),0.5
